Biological target: recombinant active human PAI-1 (Homo sapiens (Human), UniProt P05121)
Experiment: pH dependence of PAI-1 inhibition, fluorogenic uPA (or tPA) assay
Format: biochemical
Conditions: pH 6.5 to 8.5

Amino acid sequences for entries named in this document (tags omitted). Residues count along the entry.
UniProt P05121, 24-402 limits assumed: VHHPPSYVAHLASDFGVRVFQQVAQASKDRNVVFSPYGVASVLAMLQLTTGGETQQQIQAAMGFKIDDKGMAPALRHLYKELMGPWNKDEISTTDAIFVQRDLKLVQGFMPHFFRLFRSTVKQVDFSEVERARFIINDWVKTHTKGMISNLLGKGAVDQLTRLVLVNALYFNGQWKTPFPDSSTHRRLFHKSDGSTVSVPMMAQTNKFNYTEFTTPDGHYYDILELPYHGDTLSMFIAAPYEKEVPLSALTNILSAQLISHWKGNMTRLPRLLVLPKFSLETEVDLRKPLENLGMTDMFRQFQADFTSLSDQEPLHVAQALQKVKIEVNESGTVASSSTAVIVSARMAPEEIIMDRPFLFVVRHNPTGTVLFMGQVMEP

O=C(O[C@@H]1Cc2c(O)cc(O)cc2O[C@@H]1c1cc(O)c(O)c(O)c1)c1cc(O)c(O)c(O)c1
effect of pH on PAI-1 inhibition (in words): increased with increasing pH to 8.5

From patent US9120744B2, “Plasminogen activator inhibitor-1 inhibitors and methods of use thereof to modulate lipid metabolism” (THE REGENTS OF THE UNIVERSITY OF MICHIGAN, priority 2007, dated 2015)
